How the values were obtained:
[1] = biological target: Phospho-EGFR (Tyr1068) in H1975 C797S cells (CRISPR-edited EGFR C797S) (Homo sapiens, UniProt P00533, C797S/L858R/T790M); assay: HTRF pEGFR/total EGFR in H1975 C797S cells; conditions: read-out: H1975-C797S, ratio pEGFR/total EGFR, compound 3 hours
[2] = biological target: Phospho-EGFR (Tyr1068) in A431 cells (Homo sapiens, UniProt P00533); assay: HTRF pEGFR/total EGFR in A431 cells with EGF stimulation; conditions: read-out: A431, ratio pEGFR/total EGFR, compound 2.5 hours then 100 ng/ml EGF 30 mins
[3] = biological target: Phospho-EGFR (Tyr1068) in H1975 cells (Homo sapiens, UniProt P00533, L858R/T790M); assay: HTRF pEGFR/total EGFR in H1975 cells; conditions: read-out: H1975, ratio pEGFR/total EGFR, compound 3 hours

By UniProt entry, the sequences of proteins in these tests, tags left out. Where a name states a change or a piece, a line headed by the entry shows the natural chain unless it says otherwise. Residues count along the entry.
UniProt P00533, 25-1210 limits assumed: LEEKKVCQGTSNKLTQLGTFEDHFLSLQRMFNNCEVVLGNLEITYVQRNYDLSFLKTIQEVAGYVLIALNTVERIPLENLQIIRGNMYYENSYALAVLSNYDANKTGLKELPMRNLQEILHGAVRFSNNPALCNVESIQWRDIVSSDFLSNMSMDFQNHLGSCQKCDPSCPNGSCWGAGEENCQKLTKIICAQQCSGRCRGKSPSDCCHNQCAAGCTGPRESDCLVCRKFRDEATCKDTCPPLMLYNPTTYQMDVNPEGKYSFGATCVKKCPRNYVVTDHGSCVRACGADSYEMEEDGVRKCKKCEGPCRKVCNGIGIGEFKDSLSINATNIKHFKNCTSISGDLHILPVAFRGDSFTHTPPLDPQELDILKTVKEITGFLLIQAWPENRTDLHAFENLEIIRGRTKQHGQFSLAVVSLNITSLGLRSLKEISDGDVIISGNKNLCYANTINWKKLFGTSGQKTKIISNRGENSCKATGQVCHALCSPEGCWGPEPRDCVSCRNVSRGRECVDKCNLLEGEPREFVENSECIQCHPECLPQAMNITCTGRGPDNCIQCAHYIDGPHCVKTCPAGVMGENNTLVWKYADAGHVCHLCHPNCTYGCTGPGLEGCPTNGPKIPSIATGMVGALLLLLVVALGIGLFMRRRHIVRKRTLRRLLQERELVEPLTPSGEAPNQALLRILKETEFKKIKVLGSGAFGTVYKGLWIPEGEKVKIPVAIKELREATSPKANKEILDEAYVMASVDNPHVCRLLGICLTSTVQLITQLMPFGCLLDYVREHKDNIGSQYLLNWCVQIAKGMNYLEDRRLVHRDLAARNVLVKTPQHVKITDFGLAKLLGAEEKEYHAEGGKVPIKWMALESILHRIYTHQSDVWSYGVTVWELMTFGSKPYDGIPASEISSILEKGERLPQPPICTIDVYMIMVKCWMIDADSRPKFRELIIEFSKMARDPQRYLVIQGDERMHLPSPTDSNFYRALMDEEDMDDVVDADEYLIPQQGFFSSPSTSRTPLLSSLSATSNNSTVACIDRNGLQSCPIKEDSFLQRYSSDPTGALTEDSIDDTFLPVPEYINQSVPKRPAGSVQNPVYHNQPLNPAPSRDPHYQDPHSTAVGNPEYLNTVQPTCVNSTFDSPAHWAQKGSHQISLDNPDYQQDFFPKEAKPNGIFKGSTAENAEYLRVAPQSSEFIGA
UniProt P00533, 25-1210 T790M/L858R limits assumed: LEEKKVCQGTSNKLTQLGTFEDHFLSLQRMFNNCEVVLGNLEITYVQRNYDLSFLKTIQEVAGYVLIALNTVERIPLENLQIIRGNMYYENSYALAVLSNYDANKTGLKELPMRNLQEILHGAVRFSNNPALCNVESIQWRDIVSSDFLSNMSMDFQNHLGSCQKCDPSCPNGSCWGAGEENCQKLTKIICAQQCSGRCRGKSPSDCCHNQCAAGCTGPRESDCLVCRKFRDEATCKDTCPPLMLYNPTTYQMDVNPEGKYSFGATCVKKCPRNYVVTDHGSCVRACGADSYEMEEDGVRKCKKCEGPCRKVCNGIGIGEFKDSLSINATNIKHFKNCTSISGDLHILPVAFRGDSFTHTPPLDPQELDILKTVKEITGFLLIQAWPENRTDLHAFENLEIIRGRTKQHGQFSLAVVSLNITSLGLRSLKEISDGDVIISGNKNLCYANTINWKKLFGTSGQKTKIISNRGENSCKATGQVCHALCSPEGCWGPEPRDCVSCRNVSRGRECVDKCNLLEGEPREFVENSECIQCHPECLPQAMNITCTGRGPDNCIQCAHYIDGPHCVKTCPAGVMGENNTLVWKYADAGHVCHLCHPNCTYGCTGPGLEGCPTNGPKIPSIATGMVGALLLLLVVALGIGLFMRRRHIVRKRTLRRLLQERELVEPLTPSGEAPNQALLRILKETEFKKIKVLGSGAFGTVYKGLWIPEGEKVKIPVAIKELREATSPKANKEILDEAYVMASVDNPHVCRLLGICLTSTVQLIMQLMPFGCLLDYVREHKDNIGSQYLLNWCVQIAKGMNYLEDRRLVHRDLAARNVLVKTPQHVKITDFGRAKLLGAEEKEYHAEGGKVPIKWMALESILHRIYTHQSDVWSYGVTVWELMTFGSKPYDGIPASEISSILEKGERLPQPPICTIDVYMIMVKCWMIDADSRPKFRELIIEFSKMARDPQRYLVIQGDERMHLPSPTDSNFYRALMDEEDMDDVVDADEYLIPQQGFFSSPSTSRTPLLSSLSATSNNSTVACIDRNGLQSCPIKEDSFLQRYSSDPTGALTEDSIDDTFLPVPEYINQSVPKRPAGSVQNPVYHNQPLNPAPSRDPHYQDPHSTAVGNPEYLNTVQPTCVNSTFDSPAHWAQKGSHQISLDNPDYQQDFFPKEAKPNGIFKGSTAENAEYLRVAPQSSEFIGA
UniProt P00533, 25-1210 T790M/C797S/L858R limits assumed: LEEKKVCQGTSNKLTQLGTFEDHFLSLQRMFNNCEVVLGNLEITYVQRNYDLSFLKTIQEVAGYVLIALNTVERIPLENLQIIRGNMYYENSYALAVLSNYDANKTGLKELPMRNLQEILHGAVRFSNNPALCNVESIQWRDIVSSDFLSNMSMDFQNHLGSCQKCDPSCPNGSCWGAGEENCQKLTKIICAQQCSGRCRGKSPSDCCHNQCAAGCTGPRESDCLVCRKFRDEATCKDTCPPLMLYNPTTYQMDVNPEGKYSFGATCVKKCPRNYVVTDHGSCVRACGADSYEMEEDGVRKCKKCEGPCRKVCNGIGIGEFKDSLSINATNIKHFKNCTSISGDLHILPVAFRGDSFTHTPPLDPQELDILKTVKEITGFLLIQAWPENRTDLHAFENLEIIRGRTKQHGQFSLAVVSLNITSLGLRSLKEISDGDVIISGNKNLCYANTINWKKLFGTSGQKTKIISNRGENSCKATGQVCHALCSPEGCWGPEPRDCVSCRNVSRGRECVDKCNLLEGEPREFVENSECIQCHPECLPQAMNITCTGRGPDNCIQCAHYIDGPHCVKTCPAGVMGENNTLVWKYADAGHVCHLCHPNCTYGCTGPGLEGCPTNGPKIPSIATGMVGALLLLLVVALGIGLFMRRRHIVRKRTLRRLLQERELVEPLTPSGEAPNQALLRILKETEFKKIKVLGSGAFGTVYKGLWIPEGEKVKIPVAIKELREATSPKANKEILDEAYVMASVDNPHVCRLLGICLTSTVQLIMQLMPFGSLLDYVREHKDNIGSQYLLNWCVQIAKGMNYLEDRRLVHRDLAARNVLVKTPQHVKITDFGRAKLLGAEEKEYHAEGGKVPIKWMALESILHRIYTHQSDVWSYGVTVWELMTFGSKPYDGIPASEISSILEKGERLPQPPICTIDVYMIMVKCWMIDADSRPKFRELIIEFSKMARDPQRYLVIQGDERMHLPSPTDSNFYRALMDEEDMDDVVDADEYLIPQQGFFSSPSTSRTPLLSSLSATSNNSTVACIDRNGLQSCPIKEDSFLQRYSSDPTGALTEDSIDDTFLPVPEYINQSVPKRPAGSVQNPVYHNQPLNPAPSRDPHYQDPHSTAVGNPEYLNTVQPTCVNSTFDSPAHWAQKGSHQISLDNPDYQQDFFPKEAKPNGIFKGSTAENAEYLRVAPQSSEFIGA

Measured: IC50

C#Cc1cc(=O)n(-c2ccccc2)c2nc(NC3CCN(C4CCN(C)CC4)CC3)ncc12
> 3 µM: all assays above

— patent US20260137703A1
